{"source": "patent US20150190421A1", "about": "“POLOXAMERS FOR THE IMPROVEMENT OF RESPIRATORY FUNCTION” (PHRIXUS PHARMACEUTICALS, INC., priority 2012, published 2015)", "tested_on": "mdx mouse model of Duchenne Muscular Dystrophy", "assay": "Whole Body Plethysmography respiration monitoring, mdx mice, 22 weeks daily s.q. dosing", "assay_type": "in vivo", "conditions": "prednisone 1 mg/kg QD s.q., mean ± S.D.", "description": "Animals. Male C57BL/10SnJ, hereafter referred to as wild-type (WT), and male mdx C57B1/10ScSn-Dmdmdx mice were used in the study. All protocols were approved by the University of Michigan (UM) UCUCA and all studies were performed in facilities run by the University of Michigan Unit of Laboratory Animal Medicine. […] Mice were purchased from Jackson Laboratories and aged in UM facilities. All ages given are ±2 weeks. Mice were randomized into groups upon receipt from Jackson Laboratories in order to minimize the need for additional cages. […] All compounds were administered subcutaneously.\nRespiration was monitored using a Buxco Whole Body Plethysmography (WBP) monitoring chambers for mouse Cat. No. PLY4211 (Buxco Research Systems, Wilmington, N.C.) according to the manufacturer's instructions. In this protocol animals are unrestrained and un-anesthetized. […] The mice were monitored for 2 months prior to initiation of treatment to acclimate the mice to the procedure and establish baseline respiratory parameters done with the last weeks reading prior to initiation of dosing. […] Upon initiation of dosing, mice were monitored every 2 weeks. […] Respiration was then monitored for 10 minutes. Each mouse was monitored in the same chamber for each reading throughout the study to minimize variability. […]\nRespiration was monitored every 2 weeks by WBP.", "data": [{"smiles": "C[C@]12C=CC(=O)C=C1CC[C@@H]1[C@@H]2C(=O)C[C@@]2(C)[C@H]1CC[C@]2(O)C(=O)CO", "note": "[Prednisone, prednisone]", "values": [{"measurement": "Te (expiratory time)", "value": "0.149 ± 0.022", "unit": "s"}]}]}
